Consider four molecules from patent US10822352B2, “Aryl, heteroaryl, and heterocyclic compounds for treatment of medical disorders” (Achillion Pharmaceuticals, Inc., priority 2015, dated 2020).

The chains behind the UniProt entries cited, without tags or fusion partners. Residues count along the entry.
UniProt P00746, 26-253: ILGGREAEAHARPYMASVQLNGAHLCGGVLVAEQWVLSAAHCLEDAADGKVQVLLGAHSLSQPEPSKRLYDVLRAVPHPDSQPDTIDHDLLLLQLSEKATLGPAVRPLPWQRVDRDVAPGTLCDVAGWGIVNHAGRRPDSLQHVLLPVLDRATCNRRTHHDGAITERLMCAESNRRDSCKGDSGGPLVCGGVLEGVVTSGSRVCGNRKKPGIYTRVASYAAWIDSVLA

pIC50: −log10 of the molar value. Where two headings read alike, the source gives them in different places. Some results are limits rather than exact numbers.

A word on the pIC50: it is the negative decadic logarithm of the IC50, by convention in mol/L.

The assay deals with Human Factor D (Homo sapiens (Human), UniProt P00746). In words: Human Factor D Assay. In kind it is biochemical. How it is done: Human Factor D (purified from human serum, Complement Technology, Inc.) at 80 nM final concentration was incubated with test compound at various concentrations for 5 minutes at room temperature in 50 mM Tris, 1M NaCl, pH 7.5. A synthetic substrate Z-L-Lys-SBzl and DTNB (Ellman's reagent) are added to final concentrations of 100 μM each. […] IC50 values are calculated by nonlinear regression of complement Factor D reaction rates as a function of test compound concentration.

The mark [1] stands for this setting: Human Factor D 80 nM, substrate Z-L-Lys-SBzl, read-out: IC50.

Take `CC(=O)c1cn(CC(=O)N2C[C@H](F)C[C@H]2C(=O)Nc2cccc(OCc3ccccc3)n2)c2ccc(-c3ccnnc3)cc12` [Compound 60, (2S,4R)-1-(2-(3-acetyl-5-(pyridazin-4-yl)-1H-indol-1-yl)acetyl)-N-(6-(benzyloxy)pyridin-2-yl)-4-fluoropyrrolidine-2-carboxamide]: the pIC50 under setting [1] was 5.00 to 6.00.

On to `NC(=O)c1nn(CC(=O)N2C[C@H](F)C[C@H]2C(=O)Nc2cncc(Br)c2)c2ccc(-c3ccnnc3)cc12` [Compound 90, 1-(2-((2S,4R)-2-(5-bromopyridin-3-ylcarbamoyl)-4-fluoropyrrolidin-1-yl)-2-oxoethyl)-5-(pyridazin-4-yl)-1H-indazole-3-carboxamide], for which the pIC50 under setting [1] is 5.00 to 6.00.

`CC(=O)c1nn(CC(=O)N2CC3CC2(C(=O)Nc2cccc(Br)n2)C3)c2ccc(-c3cnc4cc(C)nn4c3)cc12` [Compound 689, 2-(2-(3-Acetyl-5-(2-methylpyrazolo[1,5-a]pyrimidin-6-yl)-1H-indazol-1-yl)acetyl)-N-(6-bromopyridin-2-yl)-2-azabicyclo[2.1.1]hexane-1-carboxamide]: the negative logarithm of the IC50 (pIC50) is above 6.00.

`CC(=O)c1cn(CC(=O)N2C[C@H](F)C[C@H]2C(=O)Nc2cc(C)nn2-c2ccccc2F)c2ccc(-c3ccnnc3)cc12` [Compound 160, (2S,4R)-1-(2-(3-acetyl-5-(pyridazin-4-yl)-1H-indol-1-yl)acetyl)-4-fluoro-N-(1-(2-fluorophenyl)-3-methyl-1H-pyrazol-5-yl)pyrrolidine-2-carboxamide]: the negative-log IC50 (pIC50) under setting [1] was 5.00 to 6.00.
